Assay results: patent US20240398963A1 (priority 2021, published 2024)

Format: physicochemical
Conditions: 10 mM PBS buffer (pH=7.4), 37° C., 100 rpm shaker; free drug by HPLC, average release per day
Method: The drug release and stability experiments were run using the test compounds. About 2.5±1.0 mg/mL (with regard to conjugate) solution of each test compound was prepared with 10 mM PBS buffer (pH=7.4) in Millipore Amicon® Ultra-0.5 ml 30 k Ultrafiltration centrifuge tube. The solution was kept swelling for 1 h at room temperature and then placed in a shaker at 100 rpm, 37° C. for continuous experiment. At the same time point of each day, samples were centrifuged at 10000 rpm for 1 h. The aliquot was transferred to HPLC vial for analysis. An 0.4 mL of 10 mM PBS buffer was added into the centrifuge tube and continue the experiment.
For the HPLC analysis at each time point, the peak areas of all relevant peaks from the chromatograms were retrieved and the concentration of free drug was calculated. Average release of free drug was calculated based on the sum of free drug and numbers of experiment days. The computing equation is as below.
The sample degradation rate was calculated based on the concentration and degree of substitution (NMR) for conjugated drug with regard to the initial starting point of the experiment (at t=0). The computing equation is as below.
With “Conjugate of HA and 2-((6αS,6βR,7S,8αS,8βS,11αR,12αS,12βS)-6β-fluoro-7-hydroxy-6α,8α,10,10-tetramethyl-4-oxo-1,2,4,6α,6β,7,8,8α,11α,12,12α,12β-dodecahydro-8βH-naphtho[2′,1′:4,5]indeno[1,2-d][1,3]dioxol-8β-yl)-2-oxoethyl piperidine-4-carboxylate [Example 10]” the Release rate was 0.83 %/day.
In the case of “Conjugate of HA and 2-((2S,6αS,6βR,7S,8αS,8βS,11αR,12αS,12βS)-2,6β-difluoro-7-hydroxy-6α,8α,10,10-tetramethyl-4-oxo-1,2,4,6α,6β,7,8,8α,11α,12,12α,12β-dodecahydro-8βH-naphtho[2′,1′:4,5]indeno[1,2-d][1,3]dioxol-8β-yl)-2-oxoethyl 4-(aminomethyl)benzoate [Example 22]”, the Release rate is reported as 0.40 %/day.
With “Conjugate of HA and 2-((6αS,6βR,7S,8αS,8βS,11αR,12αS,12βS)-6β-fluoro-7-hydroxy-6α,8α,10,10-tetramethyl-4-oxo-1,2,4,6α,6β,7,8,8α,11α,12,12α,12β-dodecahydro-8βH-naphtho[2′,1′:4,5]indeno[1,2-d][1,3]dioxol-8β-yl)-2-oxoethyl alaninate [Example 8]” the Release rate was 2.00 %/day.
In the case of “Conjugate of HA and 2-((6αS,6βR,7S,8αS,8βS,11αR,12αS,12βS)-6β-fluoro-7-hydroxy-6α,8α,10,10-tetramethyl-4-oxo-1,2,4,6α,6β,7,8,8α,11α,12,12α,12β-dodecahydro-8βH-naphtho[2′,1′:4,5]indeno[1,2-d][1,3]dioxol-8β-yl)-2-oxoethyl pyrrolidin-3-yl carbonate [Example 16]”, the Release rate is reported as 1.46 %/day.
Work on “Conjugate of HA and 2-((6αS,6βR,7S,8αS,8βS,11αR,12αS,12βS)-6β-fluoro-7-hydroxy-6α,8α,10,10-tetramethyl-4-oxo-1,2,4,6α,6β,7,8,8α,11α,12,12α,12β-dodecahydro-8βH-naphtho[2′,1′:4,5]indeno[1,2-d][1,3]dioxol-8β-yl)-2-oxoethyl 14-amino-3,6,9,12-tetraoxatetradecanoate [Example 50]” yielded a Release rate of 9.26 %/day.
For “Conjugate of HA and 2-((6αS,6βR,7S,8αS,8βS,11αR,12αS,12βS)-6β-fluoro-7-hydroxy-6α,8α,10,10-tetramethyl-4-oxo-1,2,4,6α,6β,7,8,8α,11α,12,12α,12β-dodecahydro-8βH-naphtho[2′,1′:4,5]indeno[1,2-d][1,3]dioxol-8β-yl)-2-oxoethyl pyrrolidine-3-carboxylate [Example 6]”, the Release rate was 2.34 %/day.
With “Conjugate of HA and 2-((6αS,6βR,7S,8αS,8βS,11αR,12αS,12βS)-6β-fluoro-7-hydroxy-6α,8α,10,10-tetramethyl-4-oxo-1,2,4,6α,6β,7,8,8α,11α,12,12α,12β-dodecahydro-8βH-naphtho[2′,1′:4,5]indeno[1,2-d][1,3]dioxol-8β-yl)-2-oxoethyl 2-(2-aminoethoxy)acetate [Example 28]” the Release rate was 16.89 %/day.
For “Conjugate of HA and 2-((6αS,6βR,7S,8αS,8βS,11αR,12αS,12βS)-6β-fluoro-7-hydroxy-6α,8α,10,10-tetramethyl-4-oxo-1,2,4,6α,6β,7,8,8α,11α,12,12α,12βb-dodecahydro-8βH-naphtho[2′,1′:4,5]indeno[1,2-d][1,3]dioxol-8β-yl)-2-oxoethyl 3-aminocyclobutane-1-carboxylate [Example 11]”, the Release rate was 3.53 %/day.
“Conjugate of HA and 2-((6αS,6βR,7S,8αS,8βS,11αR,12αS,12βS)-6β-fluoro-7-hydroxy-6α,8α,10,10-tetramethyl-4-oxo-1,2,4,6α,6β,7,8,8α,11α,12,12α,12β-dodecahydro-8βH-naphtho[2′,1′:4,5]indeno[1,2-d][1,3]dioxol-8β-yl)-2-oxoethyl 8-aminooctanoate [Example 9]” showed a Release rate of 0.22 %/day.
“Conjugate of HA and 2-((2S,6αS,6βR,7S,8αS,8βS,11αR,12αS,12βS)-2,6β-difluoro-7-hydroxy-6α,8α,10,10-tetramethyl-4-oxo-1,2,4,6α,6β,7,8,8α,11α,12,12α,12β-dodecahydro-8βH-naphtho[2′,1′:4,5]indeno[1,2-d][1,3]dioxol-8β-yl)-2-oxoethyl piperidine-4-carboxylate [Example 21]” gave a Release rate of 2.05 %/day.
